Source: patent US20130012466A1 (priority 2006, published 2013)
pIC50: −log10 of the molar value.

System: Du145
Assay: Cytotoxicity assay (cell titer-glo and calcein AM), Du145
Details: read-out: Cytotoxicity IC50, Du145, CTG, CTG (cell titer-glo) readout, % error in parentheses

**Q.** `COc1cc2c(c(OC)c1OC)-c1ccc(OC)c(=O)cc1[C@@H](NC(=O)CN(OC)[C@@H]1O[C@H](CO)[C@@H](O)[C@H](O)[C@H]1F)CC2` [Col34, 2-fluoro-2-deoxy-D-glucoside] was tested. Which pIC50 did it give?
**A.** 6.85
